From patent publication US6399782B1, “Benzimidazole inhibitors of fructose 1,6-bisphosphatase” (Metabasis Therapeutics, Inc., priority 1997, dated 2002)

Key:
rat hepatocytes = test: Inhibition of gluconeogenesis in rat hepatocytes; type: cell-based; conditions: Hepatocyte; glucose production from lactate/pyruvate, isolated rat hepatocytes, 1 hour
Procedure: Hepatocytes were prepared from overnight fasted Sprague-Dawley rats (250-300 g) according to the procedure of Berry and Friend (Berry, M. N., Friend, D. S., 1969, J. Cell. Biol. 43, 506-520) as modified by Groen (Groen, A. K., Sips, H. J., Vervoorn, R. C., Tager, J. M., 1982, Eur. J. Biochem. 122, 87-93). Hepatocytes (75 mg wet weight/mL) were incubated in 1 ml Krebs-bicarbonate buffer containing 10 mM Lactate, 1 mM pyruvate, 1 mg/mL BSA, and test compound concentrations from 1 to 500 μM. Incubations were carried out in a 95% oxygen, 5% carbon dioxide atmosphere in closed, 50-mL Falcon tubes submerged in a rapidly shaking water bath (37° C.). After 1 hour, an aliquot (0.25 mL) was removed, transferred to an Eppendorf tube and centrifuged. 50 μL of supernatant was then assayed for glucose content using a Sigma Glucose Oxidase kit as per the manufacturer's instructions.

mouse liver FBPase = molecular target: T1, mouse liver FBPase (Mus musculus, UniProt Q9QXD6); test: Inhibition of mouse liver FBPase; type: biochemical; conditions: partially purified mouse liver fraction
T1 construct: This partially purified fraction was used for enzyme assays; from tissue; host or cells: mouse liver, 45-75% ammonium sulfate fraction
T1 sequence (Q9QXD6 2-338 limits assumed): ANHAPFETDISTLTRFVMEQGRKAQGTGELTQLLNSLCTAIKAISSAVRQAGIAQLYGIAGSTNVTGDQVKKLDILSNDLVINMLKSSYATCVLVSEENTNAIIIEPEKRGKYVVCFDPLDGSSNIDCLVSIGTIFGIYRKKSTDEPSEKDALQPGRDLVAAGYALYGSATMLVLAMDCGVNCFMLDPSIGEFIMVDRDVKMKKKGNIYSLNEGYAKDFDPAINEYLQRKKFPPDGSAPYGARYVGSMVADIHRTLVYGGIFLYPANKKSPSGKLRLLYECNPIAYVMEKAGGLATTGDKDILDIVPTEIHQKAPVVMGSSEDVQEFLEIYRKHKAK
Procedure: Enzymatic activity was measured spectrophotometrically in reactions that coupled the formation of product (fructose 6-phosphate) to the reduction of dimethylthiazoldiphenyltetrazolium bromide (MTT) via NADP and phenazine methosulfate (PMS), using phosphoglucose isomerase and glucose 6-phosphate dehydrogenase as the coupling enzymes. Reaction mixtures (200 μl) were made up in 96-well microtitre plates, and consisted of 50 mM Tris-HCl, pH 7.4, 100 mM KCl, 5 mM EGTA, 2 mM MgCl2, 0.2 mM NADP, 1 mg/ml BSA, 1 mM MTT, 0.6 mM PMS, 1 unit/mL phosphoglucose isomerase, 2 units/mL glucose 6-phosphate dehydrogenase, and 0.150 mM substrate (fructose 1,6-bisphosphate). Inhibitor concentrations were varied from 0.01 μM to 10 μM.
Mouse liver FBPase was obtained by homogenizing freshly isolated mouse liver in 100 mM Tris-HCl buffer, pH 7.4, containing 1 mM EGTA, and 10% glycerol. […] This fraction was redissolved in the homogenization buffer and desalted on a PD-10 gel filtration column (Biorad) eluted with same. This partially purified fraction was used for enzyme assays. Both rat liver and mouse liver FBPase were assayed as described for human liver FBPase.

IC50 (mouse liver FBPase) | Compound | IC50 (rat hepatocytes)
– | CC(C)Cn1c(-c2ccc(P(=O)(O)O)o2)nc2c(N)c(F)cc(Cl)c21 [Compound 12.54, 4-Amino-5-fluoro-7-chloro-1-isobutyl-2-(2-phosphono-5-furanyl)benzimidazole] | 3.6 µM
1.07 µM | CCc1cc(F)c(N)c2nc(-c3ccc(P(=O)(O)O)o3)n(CC(C)C)c12 [Compound 12.64] | –
